Assay results published in patent US9388139B2, “Derivatives of celeboxib, use thereof and preparation thereof” (German University, priority 2011, dated 2016).

Tests used:
[1] = tested on: human colorectal HT-29 tumor cell line; assay: Tumor cell growth assay (Cell Titer Glo); assay type: cell-based; settings: 72 hours, read-out: IC50 μM against HT-29
[2] = tested on: human breast MDA-MB-231 tumor cell line; assay: Tumor cell growth assay (Cell Titer Glo); assay type: cell-based; settings: 72 hours, read-out: IC50 μM against MDA-MB-231

What does the source list for `Cc1ccc(-c2cc(C(F)(F)F)nn2-c2ccc(S(N)(=O)=O)cc2)cc1` [Celecoxib, reference compound]?
IC50 [1]: 26.5 µM; IC50 [2]: > 50 µM
